Results from ChEMBL document CHEMBL3244191, “Study of the structural requirements for dopa potentiation and oxotremorine antagonism by L-prolyl-L-leucylglycinamide” (J Med Chem, 1978).

Tests used:
Mus musculus [1] = assay: Potentiation of dl-DOPA-induced behavioral effects in ICR mouse assessed as slight piloerection, slight salivation and slight increased motor activity at 10 mg/kg, ip administered 1 hr prior to dl-DOPA-challenge measured for 1 hr; format: functional, organism-based; design: dose 10 mg/kg
Mus musculus [2] = assay: Suppression of oxotremorine-induced tremor in ICR mouse at 20 mg/kg, ip pretreated for 1 hr followed by oxotremorine-challenge; format: functional, organism-based; design: dose 20 mg/kg

Question: How did the Activity (Mus musculus [1]) turn out when `CC(C)C[C@H](NC(=O)[C@@H]1CCCN1)C(=O)NCC(=O)O` was run?
Answer: Active

Question: What about the Activity (Mus musculus [2]) of the same compound?
Answer: inactive

Activity calls are given as the source filed them. The calls are words filed in the database; no cut-off is given here.
